Earlier results on 1 compound are cited in patent US20170003257A1, “WETNESS INDICATOR WITH TWO COLORANTS AND TWO STABILIZERS” (The Procter & Gamble Company, priority 2015, published 2017).

For the series the following is noted: Table 2 stabilizers, first pKa.

Structures are written as SMILES.

On to `C1CN1`, for which the pKa (1) is 8.
